Results from patent publication US9149530B2, “Compositions and methods for enhancing active agent absorption” (Nexus Pharma, Inc., priority 2006, dated 2015).

System: Sprague-Dawley rats
Assay: Blood glucose depression after intracolonic bovine pancreatic insulin given with absorption enhancer
Format: in vivo
Details: n=3

SMILES: CCCCCCNC(=O)c1ccc(NC(=O)CCC(=O)O)cc1O [Example 16, N-n-hexyl 4-(3-carboxy-propionylamino)-2-hydroxybenzamide]
- blood glucose profile, dependence on enhancer dose: increasing the dose of absorption enhancer results in greater decreases in blood glucose
